Laboratory results as given in patent US20020081684A1, “Method and nucleotide sequence for transforming microorganisms” (priority 1995, published 2002).

Key:
S. pombe Mae1 permease = target: T1, S. pombe Mae1 permease (Schizosaccharomyces pombe, UniProt P50537); assay: Transport assays for 14C-labelled L-malic, succinic, malonic and α-ketoglutaric acids in S. pombe wild-type, mae1- mutant and complemented mutant; assay type: cell-based
T1 construct: endogenous in cells; host or cells: S. pombe 972 leu1-32 h- (wild type); also the mae1- mutant complemented with the 3.4 kb SmaI genomic mae1 fragment in pRS315
T1 sequence (P50537 1-438): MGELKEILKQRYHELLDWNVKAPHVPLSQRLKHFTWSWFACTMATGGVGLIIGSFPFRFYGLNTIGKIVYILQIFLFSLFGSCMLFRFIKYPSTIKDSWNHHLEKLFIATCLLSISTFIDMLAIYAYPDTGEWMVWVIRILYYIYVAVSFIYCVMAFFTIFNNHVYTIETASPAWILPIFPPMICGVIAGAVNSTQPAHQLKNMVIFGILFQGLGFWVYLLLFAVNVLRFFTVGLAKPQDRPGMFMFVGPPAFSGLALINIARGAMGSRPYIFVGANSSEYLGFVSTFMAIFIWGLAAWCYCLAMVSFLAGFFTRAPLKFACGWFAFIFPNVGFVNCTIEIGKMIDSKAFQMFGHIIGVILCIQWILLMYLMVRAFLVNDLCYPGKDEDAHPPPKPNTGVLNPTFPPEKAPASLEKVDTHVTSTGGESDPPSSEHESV
Description: Yeast cells in the logarithmic growth phase (OD of 1.2 at A595) were harvested and washed three times with 0.1 M KCI (pH 3.5). The cells were resuspended in 4 ml 0.1 M KCI (pH 3.5) and stored at 4° C. Transport assays were completed within 3 h. The cell suspensions were pre-incubated for 5 min in a shaker water bath at 30° C. at 100 rpm. Assays were initiated by adding 25 μl of ^14C-labelled L malate (45 μCi/μmol) (Amersham), 100 μl of succinic acid (42 μCi/μmol) (ICN), 100 μl malonic add (56.7 μCi/μmol) (Du Pont) or 100 μl a-ketoglutarate (51.8 μCi/μmol) (Du Pont). A 0.5-ml sample was withdrawn at 10, 20, 40, 60, and 120 sec intervals, rapidly filtered through 0.45 μm membranes (Mllipore Corporation, Bedford, Mass.), and immediately washed three times with 5 ml amounts of ice-cold 0.1 M KCI (pH 3.5). Filters containing the cells were oven-dried at 50° C. and placed in scintillation vials containing 5 ml of scintillation reaction mixture (Boehringer Mannheim, Mannheim, Germany). Pre-boiled (5 min) cells were used to determine non-specific binding of [^14C] malate, succinate, malonate and α-ketoglutarate to the yeast cells.
Malic, succinic, malonic and α-ketoglutaric acid transport assays were done using a wild-type strain of S. pombe, a mae1-mutant and the mae1-mutant complemented with the mae1 gene.

[1] = target: T2, L-malic acid carrier in S. pombe (Schizosaccharomyces pombe, UniProt P50537); settings: Sousa et al. (1992); cited from earlier work
T2 construct: host or cells: S. pombe cells (per the assay title)
T2 sequence (P50537 1-438): T1 sequence (P50537 1-438)

## O=C(O)CCC(=O)C(=O)O [α-ketoglutaric acid]
S. pombe Mae1 permease
  transport by the S. pombe strains: not transported
[1]
  inhibition of initial uptake rates of L-malic acid: competitive inhibition
